Results reported in patent publication EP0935963A2, “The use of MMP-13 selective inhibitors for the treatment of osteoarthritis and other matrix metalloproteinase-mediated disorders” (Pfizer Products Inc., priority 1997, dated 1999).

Tests used:
MMP-1 = target: T1, MMP-1 (Homo sapiens, UniProt P03956); test: biochemical
T1 sequence (P03956 100-469): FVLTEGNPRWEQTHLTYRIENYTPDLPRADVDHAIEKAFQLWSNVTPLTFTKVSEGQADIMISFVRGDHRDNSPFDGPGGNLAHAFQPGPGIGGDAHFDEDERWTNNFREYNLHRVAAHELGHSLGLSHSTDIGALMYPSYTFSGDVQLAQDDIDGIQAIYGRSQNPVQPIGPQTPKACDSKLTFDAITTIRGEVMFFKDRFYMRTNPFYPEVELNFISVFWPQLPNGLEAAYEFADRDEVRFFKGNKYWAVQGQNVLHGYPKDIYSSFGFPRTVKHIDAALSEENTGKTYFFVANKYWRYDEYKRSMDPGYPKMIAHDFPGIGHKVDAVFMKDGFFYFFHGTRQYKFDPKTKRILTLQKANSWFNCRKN
Protocol: Rat type I collagen is radiolabeled with ^14C acetic anhydride (T.E. Cawston and A.J. Barrett, Anal. Biochem., 99, 340-345 (1979)) and used to prepare 96 well plates containing radiolabeled collagen films (Barbara Johnson-Wint, Anal. Biochem., 104, 175-181 (1980)). When a solution containing collagenase is added to the well, the enzyme cleaves the insoluble collagen which unwinds and is thus solubilized. […] Collagenase inhibitors are, therefore, compounds which reduce the radioactive counts released with respect to the controls with no inhibitor present. One specific embodiment of this assay is described in detail below. […]
100 µl of appropriate drug dilution and 100 µl of diluted enzyme are pipetted into wells of a 96 well plate containing collagen films labeled with ^14C-collagen. […] Each drug concentration and control is analyzed in triplicate. […]
The plates are incubated at 37°C for a time period such that around 30 - 50% of the available collagen is solubilized - determined by counting additional control wells at various time points. […] When the assay has progressed sufficiently, the supernatant from each well is removed and counted in a scintillation counter. The background counts (determined by the counts in the wells with no enzyme) are subtracted from each sample and the % release calculated in relation to the wells with enzyme only and no inhibitor. […]

[1] = target: T2, Human recombinant collagenase-1 (Homo sapiens, UniProt P03956); test: Inhibition of Human Collagenase (MMP-1), fluorescence assay; type: biochemical
T2 sequence (P03956 100-469): T1 sequence (P03956 100-469)
Protocol: Human recombinant collagenase-1 is activated with trypsin. The amount of trypsin is optimized for each lot of collagenase-1 but a typical reaction uses the following ratio: 5 µg trypsin per 100 µg of collagenase.. The trypsin and collagenase are incubated at room temperature for 10 minutes then a five fold excess (50 mg/10 mg trypsin) of soybean trypsin inhibitor is added.
Stock solutions (10 mM) of inhibitors are made up in dimethylsulfoxide and then diluted using the following Scheme: 10 mM → 120 µM → 12 µM → 1.2 µM → 0.12 µM
Twenty-five microliters of each concentration is then added to triplicate wells of a 96 well microfluor plate. The final concentration of inhibitor will be a 1:4 dilution after addition of enzyme and substrate. Positive controls (enzyme, no inhibitor) and negative controls (no enzyme no inhibitors) are also run in triplicate on each plate.
Collagenase-1 is diluted to 240 ng/ml and 25 µl is then added to appropriate wells of the microfluor plate. […]
Fluorescence readings (360 nm excitation, 460 nm emission) are taken at time 0 and then at 20 minute intervals. […]
Fluorescence versus time is then plotted for both the blank and collagenase containing samples (data from triplicate determinations is averaged). […] Data is plotted as inhibitor concentration versus % control (inhibitor fluorescence divided by fluorescence of collagenase alone x 100). […]

CNC(=O)[C@H](Cc1ccc(OC)cc1)NC(=O)C(CC(=O)NO)CC(C)C (some centres unmarked) [Example 1, reference compound] gave an IC50 (MMP-1) of 3.5 nM and an IC50 [1] of 2.5 nM.
